Results taken from US10689362B2, “Quinoxaline compounds as type III receptor tyrosine kinase inhibitors” (Development Center for Biotechnology, priority 2016, dated 2020).

Amino acid sequences for entries named in this document (tags omitted). Residues count along the entry.
UniProt P09619, 33-1106 limits assumed: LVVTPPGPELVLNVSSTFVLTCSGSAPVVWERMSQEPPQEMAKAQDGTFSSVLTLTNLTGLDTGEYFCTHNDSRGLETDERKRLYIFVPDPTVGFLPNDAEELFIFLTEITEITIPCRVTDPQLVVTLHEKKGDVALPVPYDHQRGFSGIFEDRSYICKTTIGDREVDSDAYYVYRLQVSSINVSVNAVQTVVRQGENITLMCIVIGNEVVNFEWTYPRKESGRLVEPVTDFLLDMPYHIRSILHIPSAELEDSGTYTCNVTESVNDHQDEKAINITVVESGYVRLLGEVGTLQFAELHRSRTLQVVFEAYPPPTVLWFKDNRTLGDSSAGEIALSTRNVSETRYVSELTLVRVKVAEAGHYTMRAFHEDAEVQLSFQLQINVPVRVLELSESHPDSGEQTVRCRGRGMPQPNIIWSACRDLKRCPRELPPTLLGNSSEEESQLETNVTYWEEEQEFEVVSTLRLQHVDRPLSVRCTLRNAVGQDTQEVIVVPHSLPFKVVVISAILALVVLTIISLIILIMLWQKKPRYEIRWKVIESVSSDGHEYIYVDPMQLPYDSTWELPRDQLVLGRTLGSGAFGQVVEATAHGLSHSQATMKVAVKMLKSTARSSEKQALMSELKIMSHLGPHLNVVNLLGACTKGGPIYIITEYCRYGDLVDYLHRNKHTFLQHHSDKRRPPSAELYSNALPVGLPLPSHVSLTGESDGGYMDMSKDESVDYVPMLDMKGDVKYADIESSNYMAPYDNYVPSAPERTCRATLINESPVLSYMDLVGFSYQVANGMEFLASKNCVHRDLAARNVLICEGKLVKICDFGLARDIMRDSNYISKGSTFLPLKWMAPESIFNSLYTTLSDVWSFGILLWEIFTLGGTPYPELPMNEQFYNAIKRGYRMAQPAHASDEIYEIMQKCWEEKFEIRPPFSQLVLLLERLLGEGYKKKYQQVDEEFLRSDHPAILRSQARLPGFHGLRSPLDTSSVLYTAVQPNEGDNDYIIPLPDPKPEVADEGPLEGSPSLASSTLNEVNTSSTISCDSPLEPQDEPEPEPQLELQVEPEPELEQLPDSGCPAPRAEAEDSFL
UniProt P07333, 20-972 limits assumed: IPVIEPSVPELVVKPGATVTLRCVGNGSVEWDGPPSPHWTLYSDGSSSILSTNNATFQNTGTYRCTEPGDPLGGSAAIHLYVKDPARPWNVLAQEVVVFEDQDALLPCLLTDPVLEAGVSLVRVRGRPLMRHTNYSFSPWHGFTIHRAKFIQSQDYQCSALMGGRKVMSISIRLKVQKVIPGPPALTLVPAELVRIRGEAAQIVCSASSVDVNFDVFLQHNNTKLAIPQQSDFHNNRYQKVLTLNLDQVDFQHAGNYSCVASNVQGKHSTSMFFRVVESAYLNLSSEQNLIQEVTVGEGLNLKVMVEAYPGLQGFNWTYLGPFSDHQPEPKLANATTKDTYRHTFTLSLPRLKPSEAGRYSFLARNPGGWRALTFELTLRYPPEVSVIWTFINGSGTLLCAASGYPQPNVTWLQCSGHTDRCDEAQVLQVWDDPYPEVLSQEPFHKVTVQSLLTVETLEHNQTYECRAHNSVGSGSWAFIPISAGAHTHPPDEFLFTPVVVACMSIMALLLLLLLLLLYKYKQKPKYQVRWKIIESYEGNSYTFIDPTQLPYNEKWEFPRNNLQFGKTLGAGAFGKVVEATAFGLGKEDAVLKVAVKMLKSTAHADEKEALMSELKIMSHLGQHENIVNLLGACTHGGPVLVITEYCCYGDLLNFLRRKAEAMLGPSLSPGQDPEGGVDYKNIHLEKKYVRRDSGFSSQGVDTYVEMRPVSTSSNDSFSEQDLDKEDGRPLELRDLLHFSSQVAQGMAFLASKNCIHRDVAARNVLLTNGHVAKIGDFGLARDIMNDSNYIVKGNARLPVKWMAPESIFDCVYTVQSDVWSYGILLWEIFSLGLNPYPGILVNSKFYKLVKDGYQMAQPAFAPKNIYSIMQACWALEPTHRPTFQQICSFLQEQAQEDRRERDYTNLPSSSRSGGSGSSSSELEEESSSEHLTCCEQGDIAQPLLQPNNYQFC
UniProt P36888, 27-993 limits assumed: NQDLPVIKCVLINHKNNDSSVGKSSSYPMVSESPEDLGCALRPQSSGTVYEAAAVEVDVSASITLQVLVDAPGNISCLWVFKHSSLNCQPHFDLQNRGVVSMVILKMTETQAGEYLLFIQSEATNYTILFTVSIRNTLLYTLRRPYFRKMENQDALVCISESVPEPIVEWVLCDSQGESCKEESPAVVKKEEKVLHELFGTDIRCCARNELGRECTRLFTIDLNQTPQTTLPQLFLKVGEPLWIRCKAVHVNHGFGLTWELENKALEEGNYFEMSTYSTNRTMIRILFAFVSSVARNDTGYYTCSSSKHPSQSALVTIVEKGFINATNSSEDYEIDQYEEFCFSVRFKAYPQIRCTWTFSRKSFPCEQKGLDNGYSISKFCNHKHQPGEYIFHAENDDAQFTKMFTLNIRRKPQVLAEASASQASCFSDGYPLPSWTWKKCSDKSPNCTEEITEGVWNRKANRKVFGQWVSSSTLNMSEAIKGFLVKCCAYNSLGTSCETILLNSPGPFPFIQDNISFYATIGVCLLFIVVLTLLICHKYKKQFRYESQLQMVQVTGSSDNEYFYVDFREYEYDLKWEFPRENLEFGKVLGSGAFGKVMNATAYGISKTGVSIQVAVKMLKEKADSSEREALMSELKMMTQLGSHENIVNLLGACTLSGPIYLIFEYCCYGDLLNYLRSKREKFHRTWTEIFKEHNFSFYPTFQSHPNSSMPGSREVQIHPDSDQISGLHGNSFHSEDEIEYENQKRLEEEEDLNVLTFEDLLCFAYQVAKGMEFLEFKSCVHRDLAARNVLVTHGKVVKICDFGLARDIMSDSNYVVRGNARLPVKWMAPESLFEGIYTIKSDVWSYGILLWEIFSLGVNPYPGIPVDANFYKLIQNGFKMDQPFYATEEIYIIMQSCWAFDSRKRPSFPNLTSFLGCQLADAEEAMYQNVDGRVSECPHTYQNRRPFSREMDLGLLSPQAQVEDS
UniProt P10721, 26-976 limits assumed: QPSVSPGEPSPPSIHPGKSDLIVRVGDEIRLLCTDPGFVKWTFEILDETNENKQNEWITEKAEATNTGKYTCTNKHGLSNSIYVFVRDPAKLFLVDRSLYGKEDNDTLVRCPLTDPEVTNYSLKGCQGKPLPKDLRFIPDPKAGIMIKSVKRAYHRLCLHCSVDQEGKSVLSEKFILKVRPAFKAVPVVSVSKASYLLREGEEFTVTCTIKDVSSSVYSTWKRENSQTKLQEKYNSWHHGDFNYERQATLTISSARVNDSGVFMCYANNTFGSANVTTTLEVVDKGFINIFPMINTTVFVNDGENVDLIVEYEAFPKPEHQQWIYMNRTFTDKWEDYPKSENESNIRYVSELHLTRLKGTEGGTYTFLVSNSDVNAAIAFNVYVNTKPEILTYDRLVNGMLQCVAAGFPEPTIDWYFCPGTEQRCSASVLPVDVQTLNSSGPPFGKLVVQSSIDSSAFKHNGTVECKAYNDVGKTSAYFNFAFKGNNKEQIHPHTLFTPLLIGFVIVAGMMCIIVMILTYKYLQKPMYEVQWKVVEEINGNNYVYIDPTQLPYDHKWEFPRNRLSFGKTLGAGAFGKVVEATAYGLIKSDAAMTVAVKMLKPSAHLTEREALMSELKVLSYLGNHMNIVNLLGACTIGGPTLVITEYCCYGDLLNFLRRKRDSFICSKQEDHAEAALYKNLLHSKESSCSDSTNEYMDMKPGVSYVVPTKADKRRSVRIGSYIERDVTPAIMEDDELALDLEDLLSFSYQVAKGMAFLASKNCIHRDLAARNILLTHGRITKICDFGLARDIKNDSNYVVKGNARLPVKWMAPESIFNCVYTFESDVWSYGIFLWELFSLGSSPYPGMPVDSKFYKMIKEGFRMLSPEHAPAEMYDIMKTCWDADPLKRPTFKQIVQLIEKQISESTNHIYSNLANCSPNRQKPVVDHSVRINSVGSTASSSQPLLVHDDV

Columns and labels:
PDGFRβ kinase = PDGFRβ kinase (Homo sapiens (Human), UniProt P09619); assay: PDGFRβ kinase assay (radiometric); type: biochemical; settings: read-out: PDGFRβ IC50; bound
Procedure: Inhibition of PDGFRβ kinase activity by a test compound disclosed herein was estimated by radiometric assay. Standard assay conditions were 10 ng of recombinant PDGFRβ (SignalChem) with 2 μg of substrate Poly-(Glu 4:Tyr 1) (sigma) in the assay buffer in kinase reaction buffer (10 mM MOPS pH 7.0, 0.21 mM EDTA, 0.5% glycerol, 0.001% Brij-35, 0.01 2-mercaptoehtanol, 1 mg/ml BSA, 10 mM MgCl2, 10 mM MnCl2, 10 μM ATP, 0.1 μCi per well [^33P]-ATP), in the presence of test compound (diluted in final concentration of 4% DMSO) or DMSO control, with a final volume of 25 μl for 60 minutes at 30° C. The reaction was stopped by adding 5 μl of 3% phosphoric acid solution. Total reaction solution was then harvested onto a filter plate (UniFilter-96 GF/B, PerkinElmer), and washed 20 times for 5 min with dH2O. 30 μl of MicroScint™-20 Cocktail (PerkinElmer) was added to dried plate. The plate was sealed and counted using a TopCount scintillation detector (PerkinElmer). […] The IC50 values of quinoxaline compounds of this invention against PDGFRβ kinase were determined using the GraphPad Prism 5 software.
The IC50 values for selected quinoxaline compounds of this invention against CSF-1R, c-KIT, FLT3, and PDGFRβ are summarized in Table 3.

CSF-1R kinase = CSF-1R kinase (Homo sapiens (Human), UniProt P07333); assay: CSF-1R kinase assay (AlphaScreen); type: biochemical; settings: read-out: CSF-1R IC50; class symbol
[1] = tested on: THP-1 human acute monocytic leukemia cell harboring NRAS G12D mutation; assay: THP-1 cell proliferation assay (counter screen, CellTiter-96); settings: read-out: THP-1 IC50; Cytotoxicity, THP-1 cells (counter screen), 72 hours
[2] = tested on: CSF-1-dependent M-NFS-60 mouse myeloid leukemia cell; assay: M-NFS-60 cell proliferation assay (CellTiter-96); settings: read-out: M-NFS-60 IC50; Cytotoxicity, M-NFS-60 cells, 72 hours
FLT3 kinase = FLT3 kinase (Homo sapiens (Human), UniProt P36888); assay: FLT3 kinase assay (radiometric); settings: read-out: FLT3 IC50; bound
[3] = tested on: MV4-11 human acute myeloid leukemia cell with FLT3-ITD mutation; assay: MV4-11 cell proliferation assay (CellTiter-96); settings: read-out: MV4-11 IC50; Cytotoxicity, MV4-11 cells, 72 hours
c-KIT kinase = c-KIT kinase (Homo sapiens (Human), UniProt P10721); assay: c-KIT kinase assay (radiometric); settings: read-out: c-KIT IC50; class symbol
[4] = tested on: Kasumi-1 human acute myeloid leukemia cell with c-KIT N822K activating mutation; assay: Kasumi-1 cell proliferation assay (CellTiter-96); settings: read-out: Kasumi-1 IC50; Cytotoxicity, Kasumi-1 cells, 72 hours

COc1ccc(COc2ccc(Oc3ccc4ncc(N(C)C)nc4c3C#N)cc2OC)cc1
IC50 (PDGFRβ kinase): > 1000 nM | IC50 (CSF-1R kinase): < 100 nM | IC50 [1]: > 10000 nM | IC50 [2]: < 300 nM | IC50 (FLT3 kinase): > 1000 nM | IC50 [3]: > 10000 nM | IC50 (c-KIT kinase): < 100 nM | IC50 [4]: 300 to 1000 nM
